Molecular target: Glycogen synthase kinase-3 alpha (Homo sapiens, UniProt P49840)
Assay: Inhibition of GST-tagged human GSK3A incubated for 90 mins by TR-FRET assay

By UniProt entry, the sequences of proteins in these tests, tags left out. Where a name states a change or a piece, a line headed by the entry shows the natural chain unless it says otherwise.
UniProt P49840: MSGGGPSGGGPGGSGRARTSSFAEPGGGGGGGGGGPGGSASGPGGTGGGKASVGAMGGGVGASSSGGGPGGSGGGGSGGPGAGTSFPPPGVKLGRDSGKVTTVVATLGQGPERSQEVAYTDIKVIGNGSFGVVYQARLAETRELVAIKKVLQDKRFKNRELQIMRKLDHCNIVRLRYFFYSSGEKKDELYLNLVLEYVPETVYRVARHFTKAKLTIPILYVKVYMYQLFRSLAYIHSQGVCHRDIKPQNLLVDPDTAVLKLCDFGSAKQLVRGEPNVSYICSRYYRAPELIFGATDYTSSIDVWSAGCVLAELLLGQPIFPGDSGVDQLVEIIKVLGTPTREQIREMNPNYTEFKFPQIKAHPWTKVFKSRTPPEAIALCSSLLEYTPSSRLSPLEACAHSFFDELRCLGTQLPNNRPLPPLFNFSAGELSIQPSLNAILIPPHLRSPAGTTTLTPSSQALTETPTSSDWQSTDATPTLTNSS

- IC50: 164 nM
- Ki: 81.9 nM
SMILES: CN1CC[C@H](c2c(O)cc(O)c3c(=O)cc(-c4ccccc4Cl)oc23)[C@H](O)C1 [ALVOCIDIB]
